# Results published in paper PMC6896446, “Design, synthesis and molecular modelling studies of some pyrazole derivatives as carbonic anhydrase inhibitors” (Journal of Enzyme Inhibition and Medicinal Chemistry, 2019).
# Amino acid sequences for entries named in this document (tags omitted). A change or cut given only in a name is not applied to a line headed by its entry.
# UniProt P00915: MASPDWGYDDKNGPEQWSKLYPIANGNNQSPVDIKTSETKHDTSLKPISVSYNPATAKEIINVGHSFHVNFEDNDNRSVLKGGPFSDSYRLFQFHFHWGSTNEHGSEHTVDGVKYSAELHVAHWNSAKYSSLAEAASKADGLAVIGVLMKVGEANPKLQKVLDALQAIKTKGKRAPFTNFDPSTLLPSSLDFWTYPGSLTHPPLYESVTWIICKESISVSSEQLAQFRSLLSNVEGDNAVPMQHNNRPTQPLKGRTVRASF
# Target: T1, hCA I (Homo sapiens, UniProt P00915)
# T1 construct: The hCA I and II isoenzymes used here were purified from human blood as previously described; from tissue; host or cells: human blood
# Assay: hCA I inhibition, esterase activity method (4-nitrophenylacetate)
# Format: biochemical
smiles,measurement,value
"COc1cc(/C=C/C(=O)c2ccc(N)cc2)cc(OC)c1OC [Compound 1, (E)-1-(4-aminophenyl)-3-(3,4,5-trimethoxyphenyl)prop-2-en-1-one]",Ki,10.2 nM
